# How the values were obtained:
# human TNFα (human) [1] = target: human TNFα (human) (UniProt P01375)
# human IL-17A (human) [2] = target: human IL-17A (human) (UniProt Q16552)
# human IL-17A (human) [3] = target: human IL-17A (human) (UniProt Q16552); remark: listed apart in the source
# human TNFα (human) [4] = target: human TNFα (human) (UniProt P01375); remark: listed apart in the source
# human TNFα (human) [5] = target: human TNFα (human) (UniProt P01375); remark: listed apart in the source
# [6] = target: transmembrane TNFα on Jurkat/tmTNFα cells; test: cell-based or functional assay
# monkey IL-17A (monkey) = test: ELISA, plate-coated antigen 1 µg/mL, anti-human IgG-HRP
# monkey TNFα (monkey) = monkey TNFα (monkey) (UniProt P79337); test: as above
# human IL-17A (human) [7] = target: human IL-17A (human) (UniProt Q16552); test: as above
# human TNFα (human) [8] = target: human TNFα (human) (UniProt P01375); test: as above
# human TNFα (human) [9] = target: human TNFα (human) (UniProt P01375); test: SPR, Biacore X100, antibody captured on Protein A chip, human TNFα as analyte
# human IL-17A (human) [10] = target: human IL-17A (human) (UniProt Q16552); test: SPR, Biacore X100, antibody captured on Protein A chip, human IL-17A as analyte
# human TNFα (human) [11] = target: human TNFα (human) (UniProt P01375); test: blocking ELISA: human TNFα coated, antibody titrated, blocked ligand biotin-labeled TNFR2-Fc, streptavidin-HRP, OD450; no IL-17A added
# human TNFα (human) [12] = target: human TNFα (human) (UniProt P01375); test: blocking ELISA: human TNFα coated, antibody titrated, blocked ligand biotin-labeled TNFR2-Fc, streptavidin-HRP, OD450; human IL-17A added
substance,measurement,setting,value
anti-human TNFα/anti-human IL-17A heterodimeric antibody BH1657 (bispecific antibody),EC50 of inhibition of TNFα-induced IL-6 secretion of HFF-1 cells,human TNFα (human) [1],0.43 nM
same,EC50 of inhibition of IL-17A-induced IL-6 secretion of HFF-1 cells,human IL-17A (human) [2],0.479 nM
same,EC50 of inhibition of IL-6 secretion (OD450) of HFF-1 cells stimulated with TNFα and IL-17A together; one value for the joint neutralisation of both cytokines,human IL-17A (human) [3],0.131 nM
same,EC50 of inhibition of IL-6 secretion (OD450) of HFF-1 cells stimulated with TNFα and IL-17A together; one value for the joint neutralisation of both cytokines,human TNFα (human) [4],0.131 nM
same,"EC50 of protection of L-929 cells from human TNFα (viability, MTS, OD490); IL-17A added",human TNFα (human) [5],0.347 nM
same,"EC50 of protection of L-929 cells from human TNFα (viability, MTS, OD490); no IL-17A added",human TNFα (human) [5],1.14 nM
same,"Apoptosis ratio (%) of Jurkat/tmTNFα cells, BH1657 1 µg/mL",[6],18.5%
same,"Apoptosis ratio (%) of Jurkat/tmTNFα cells, BH1657 2 µg/mL",[6],18.6%
same,"Apoptosis ratio (%) of Jurkat/tmTNFα cells, BH1657 10 µg/mL",[6],17.6%
same,"Apoptosis ratio (%) of Jurkat/tmTNFα cells, BH1657 20 µg/mL",[6],17.8%
same,EC50,monkey IL-17A (monkey),0.033 nM
same,EC50,monkey TNFα (monkey),0.034 nM
anti-human TNFα/anti-human IL-17A heterodimeric antibody BH1657 (bispecific antibody; other documents disagree on this pair),EC50,human IL-17A (human) [7],0.03 nM
same,EC50,human TNFα (human) [8],0.042 nM
same,Kd,human TNFα (human) [9],0.0203 nM
same,koff,human TNFα (human) [9],4.98e-05 s⁻¹
same,kon,human TNFα (human) [9],2.45e+06 M⁻¹ s⁻¹
same,Kd,human IL-17A (human) [10],0.0116 nM
same,koff,human IL-17A (human) [10],6.81e-05 s⁻¹
same,kon,human IL-17A (human) [10],5.87e+06 M⁻¹ s⁻¹
same,EC50,human TNFα (human) [11],21.1 nM
same,EC50,human TNFα (human) [12],12.2 nM

# Reference: patent US20220010006A1 (BEIJING HANMI PHARMACEUTICAL, published 2022)
